# Reference: US6903183B1, “Compositions and methods for regulation of steroidogenesis” (Texas Tech University Health Services Center, priority 1996, dated 2005)
# Test system: StAR protein
# Experiment: Synthesis of StAR protein in MA-10 cells after CRH, dbcAMP or hCG
# Assay type: cell-based, mouse
# Source text: The maximum response to dbcAMP occurred at 6 hr post stimulation.
substance,measurement,value
hCG: human chorionic gonadotropin,synthesis of the StAR protein,significantly lower than those seen with CRH or dbcAMP
